This assay concerns the target Acetylcholinesterase (Homo sapiens, UniProt P22303).

Protein sequences, listed by entry. Tags and fused reporters are not part of them. Residues count along the entry.
UniProt P22303, 32-614 limits assumed: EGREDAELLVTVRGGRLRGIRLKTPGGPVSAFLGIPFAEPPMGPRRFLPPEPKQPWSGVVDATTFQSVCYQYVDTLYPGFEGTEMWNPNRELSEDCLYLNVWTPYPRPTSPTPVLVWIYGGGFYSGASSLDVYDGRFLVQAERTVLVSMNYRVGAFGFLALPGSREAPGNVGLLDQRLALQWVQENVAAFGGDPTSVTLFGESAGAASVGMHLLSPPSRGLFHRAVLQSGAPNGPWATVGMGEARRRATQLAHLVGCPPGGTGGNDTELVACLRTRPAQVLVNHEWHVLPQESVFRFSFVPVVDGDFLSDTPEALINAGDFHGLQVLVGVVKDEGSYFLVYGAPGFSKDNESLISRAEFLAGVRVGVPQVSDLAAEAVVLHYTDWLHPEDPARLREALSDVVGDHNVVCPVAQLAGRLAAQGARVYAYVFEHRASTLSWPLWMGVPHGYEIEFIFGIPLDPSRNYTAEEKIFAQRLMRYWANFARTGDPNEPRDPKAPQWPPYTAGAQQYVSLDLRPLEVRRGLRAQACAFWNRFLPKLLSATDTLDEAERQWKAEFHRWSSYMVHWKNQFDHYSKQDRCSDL

A word on the IC50: it is the point on the concentration scale where inhibition reaches its midpoint. In turn, `BrCC1CN=C(Nc2ccccn2)S1` (stereo unspecified) gave an IC50 of 110 µM.

(Values after BindingDB's records for 26827140.)
